From PubChem BioAssay AID1347087 (National Center for Advancing Translational Sciences (NCATS), 2019)
The list shows a part of the results, in another mix than the full data. Records with an inconclusive call do not appear. Active and inactive are the calls of the source. Calls come from the whole dose curve.

Experiment: qHTS for Inhibitors of the Functional Ribonucleoprotein Complex (vRNP) of Lassa (LASV) Arenavirus: LASV Confirmatory Screen - GLuc reporter signal
Settings: LASV minigenome vRNP, Gaussia luciferase reporter

With CCC(=O)N(c1ccccc1)C1(COC)CCN(CCc2cccs2)CC1 the Potency was active: 44.4 µM.
